Source: patent publication US12012375B2, “Prostaglandin F2 alpha derivatives for decreasing intraocular pressure” (GURUS BIOPHARM LIMITED LIABILITY COMPANY, priority 2018, dated 2024)

Tested on: 3T3-L1 cells
Assay: Cytotoxicity, MTT assay of cell survival
Assay type: cell-based
Conditions: cultivated mice 3T3-L1 cells, 24 hours incubation
Protocol: 3T3-L1 cells were incubated at 95% humidity, in the 5% CO2 atmosphere, at 37° C. Cultivation was performed in DMEM medium comprising 7% FCS, 2 mM of glutamine, 100 U/ml of penicillin, 100 μg/ml of streptomycin and 0.25 μg/ml of amphotericin B. Cells were subcultured every 48-72 hours. For the purpose of suspending the cells were incubated in Versene's solution within 1 minute and in Trypsin-EDTA solution within 1 minute (0.25%).
Cells were inoculated by 30 thousand into wells of 96-well plate (monolayer) in 100 μl of medium for MTT-test. After 24 hours of cultivation 100 μl of test substances in the medium used for cell culture were added to the cells with replacement of culture medium with a new one. Cells were incubated with test substances for 24 hours. Cells, to which 100 μl of medium used for cell culture were added to, were used as […].
Assessment of cell survival in the culture using the MTT assay After the incubation, the medium was removed from each well, and then 100 μl of MTT solution were added to each well (0.5 mg/ml of MTT, 3.5 mg/ml of D-glucose in Hanks' solution). The plate was placed into CO2-incubator (Ependorf, Germany) for 1.5 h. […] Then, the solution optical density was determined at the wavelength of 576 nm and 620 nm using a plate reader (EFOS 9305, OAO MZ Sapphir).

Substance: Prostaglandin F2α Amide with γ-Aminobutyric Acid Nitroethanolamide [Compound 8]
- EC50: 194 ± 4 µM
